pIC50: −log10 of the molar value.
Target: T1, Porcine kidney D-amino acid oxidase (Sus scrofa, UniProt P00371)
T1 construct: purchased Sigma Company A-5222; host or cells: porcine kidney
Test: D-amino acid oxidase inhibition assay (Amplex Red Hydrogen Peroxide Assay Kit)
Assay type: biochemical
Settings: D-serine substrate; reaction time five minutes
Experimental: A working solution was prepared by mixing: sodium phosphate buffer (8.7 ml, 0.025M, pH 7.4), D-serine solution (1.0 ml, 100 mM in water), horseradish peroxidase (0.2 ml, 200 U/ml in buffer), and Amplex™ Red solution (0.1 ml, 1 mg dye in 200 μl in DMSO (50 μM in DMSO)). A working enzyme solution was prepared by diluting a D-amino oxidase stock solution (65 U/ml) one hundred fold. The working solution (100 μl) was transferred to wells of a Microfluor B microtiter plate and a solution of the inhibitor in DMF was added.
Control experiments were carried out using DMF in the absence of inhibitor.

By UniProt entry, the sequences of proteins in these tests, tags left out. Where a name states a change or a piece, a line headed by the entry shows the natural chain unless it says otherwise.
UniProt P00371: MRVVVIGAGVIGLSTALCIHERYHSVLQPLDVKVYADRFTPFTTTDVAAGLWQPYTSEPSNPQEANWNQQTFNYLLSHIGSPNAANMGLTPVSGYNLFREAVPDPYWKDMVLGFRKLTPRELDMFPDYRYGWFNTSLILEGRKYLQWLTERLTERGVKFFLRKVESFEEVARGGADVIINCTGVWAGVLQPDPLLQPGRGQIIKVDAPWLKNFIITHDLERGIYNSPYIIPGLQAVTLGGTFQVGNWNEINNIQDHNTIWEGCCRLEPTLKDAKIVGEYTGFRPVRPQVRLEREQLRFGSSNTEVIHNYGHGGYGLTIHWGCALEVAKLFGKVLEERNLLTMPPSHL

In the case of CCCC1Nc2c(C(=O)O)ccc([N+](=O)[O-])c2C2C(Cl)C(Sc3ccccc3[N+](=O)[O-])CC12 (stereo not shown) [compound 8], the pIC50 was 4.96.

Source: patent US20030162825A1, “D-amino acid oxidase inhibitors for learning and memory” (SEPRACOR INC., priority 2001, published 2003)
